Earlier results in patent US20220105051A1, “COMPOUNDS FOR INCREASING MHC-I EXPRESSION AND MODULATING HISTONE DEACETYLASE ACTIVITY” (Cava Healthcare Inc., priority 2019, published 2022).

Sequences of proteins named here, by UniProt entry; tags and fusion partners are left off. A change or cut given only in a name is not applied to a line headed by its entry.
UniProt Q9UKV0: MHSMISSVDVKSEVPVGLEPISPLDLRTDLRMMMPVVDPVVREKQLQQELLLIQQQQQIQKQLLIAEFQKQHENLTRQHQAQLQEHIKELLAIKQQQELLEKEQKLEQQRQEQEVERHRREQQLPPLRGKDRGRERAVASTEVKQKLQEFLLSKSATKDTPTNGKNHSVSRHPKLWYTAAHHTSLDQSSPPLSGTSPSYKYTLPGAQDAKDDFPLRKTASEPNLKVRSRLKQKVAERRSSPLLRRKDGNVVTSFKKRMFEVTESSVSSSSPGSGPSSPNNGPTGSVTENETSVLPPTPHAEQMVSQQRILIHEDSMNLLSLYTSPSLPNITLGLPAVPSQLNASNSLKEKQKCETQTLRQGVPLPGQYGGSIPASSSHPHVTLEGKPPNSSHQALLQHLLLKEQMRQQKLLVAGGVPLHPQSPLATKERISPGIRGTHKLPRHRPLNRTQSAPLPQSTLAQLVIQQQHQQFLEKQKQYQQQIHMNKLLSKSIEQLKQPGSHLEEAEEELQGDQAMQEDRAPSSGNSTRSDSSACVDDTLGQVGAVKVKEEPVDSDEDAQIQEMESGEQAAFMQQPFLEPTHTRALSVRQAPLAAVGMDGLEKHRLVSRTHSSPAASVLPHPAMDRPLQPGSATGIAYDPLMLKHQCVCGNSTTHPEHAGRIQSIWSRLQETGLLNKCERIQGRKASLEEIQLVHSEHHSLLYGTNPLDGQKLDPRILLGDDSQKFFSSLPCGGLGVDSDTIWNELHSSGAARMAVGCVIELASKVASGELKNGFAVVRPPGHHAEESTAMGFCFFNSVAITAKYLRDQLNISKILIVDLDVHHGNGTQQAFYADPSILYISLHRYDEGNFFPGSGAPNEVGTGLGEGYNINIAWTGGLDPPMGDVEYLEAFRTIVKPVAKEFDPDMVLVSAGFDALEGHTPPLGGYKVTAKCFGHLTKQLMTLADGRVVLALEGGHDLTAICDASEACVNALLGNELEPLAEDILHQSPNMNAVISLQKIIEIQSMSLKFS

Columns and labels:
HDAC6 = target: T1, HDAC6 (Homo sapiens, UniProt Q9UBN7); conditions: known; cited from earlier work
T1 construct: purchased BPS Biosciences
T1 sequence (Q9UBN7 1-1215): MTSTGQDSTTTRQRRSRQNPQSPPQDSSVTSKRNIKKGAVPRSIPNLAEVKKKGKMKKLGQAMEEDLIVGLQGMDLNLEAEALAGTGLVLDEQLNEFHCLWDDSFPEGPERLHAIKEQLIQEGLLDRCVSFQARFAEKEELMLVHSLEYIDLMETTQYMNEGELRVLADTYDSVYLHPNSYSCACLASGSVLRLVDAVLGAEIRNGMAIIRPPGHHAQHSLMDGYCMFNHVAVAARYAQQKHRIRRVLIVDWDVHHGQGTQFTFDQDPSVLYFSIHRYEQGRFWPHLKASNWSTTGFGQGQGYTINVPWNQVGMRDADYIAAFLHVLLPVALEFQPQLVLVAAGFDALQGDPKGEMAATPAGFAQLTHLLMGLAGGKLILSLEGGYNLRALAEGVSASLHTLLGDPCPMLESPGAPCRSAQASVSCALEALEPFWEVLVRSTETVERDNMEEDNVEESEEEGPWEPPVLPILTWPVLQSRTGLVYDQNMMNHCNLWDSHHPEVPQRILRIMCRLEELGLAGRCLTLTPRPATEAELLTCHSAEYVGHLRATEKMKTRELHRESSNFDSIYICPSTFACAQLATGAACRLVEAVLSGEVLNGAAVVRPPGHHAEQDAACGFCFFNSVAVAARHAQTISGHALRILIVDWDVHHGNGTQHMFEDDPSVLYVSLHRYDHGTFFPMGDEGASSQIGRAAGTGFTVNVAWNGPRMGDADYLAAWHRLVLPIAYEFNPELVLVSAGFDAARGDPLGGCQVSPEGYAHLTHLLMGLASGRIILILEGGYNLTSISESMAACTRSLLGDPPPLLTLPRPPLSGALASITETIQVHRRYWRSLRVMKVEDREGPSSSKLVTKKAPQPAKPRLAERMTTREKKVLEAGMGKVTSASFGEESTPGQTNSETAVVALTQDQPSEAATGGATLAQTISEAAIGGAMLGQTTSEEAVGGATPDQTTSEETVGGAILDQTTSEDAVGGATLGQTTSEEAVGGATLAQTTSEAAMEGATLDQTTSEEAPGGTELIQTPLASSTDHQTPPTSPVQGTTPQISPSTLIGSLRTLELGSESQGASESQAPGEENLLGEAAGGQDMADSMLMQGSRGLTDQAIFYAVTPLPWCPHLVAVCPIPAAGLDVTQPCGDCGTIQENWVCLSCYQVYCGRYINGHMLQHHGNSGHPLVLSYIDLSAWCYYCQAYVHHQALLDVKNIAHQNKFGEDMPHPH

HDAC9 = target: T2, HDAC9 (Homo sapiens, UniProt Q9UKV0); conditions: known; cited from earlier work
T2 construct: purchased BPS Biosciences

CC(/C=C/C(=O)NO)=C\[C@@H](C)C(=O)c1ccc(N(C)C)cc1 [TSA, Trichostatin A, reference compound]
effect on HDAC6 (HDAC6): limited effect | effect on HDAC9 (HDAC9): limited effect
